Test results reported in PubChem BioAssay AID624172 (National Center for Advancing Translational Sciences (NCATS), 2012).
“And” between values parts separate entries of the source, which are not always exact repeats. Identical values can stand only once. The entries are a selection whose mix differs from that of the whole data set. The source made the active and inactive calls. Calls come from the whole dose curve; as a rule, active = well fitted activation curve with a large enough effect; inconclusive = small, poorly fitted or top-dose-only effect; inactive = no such curve, though single readings can be large or run the other way.

Sequences of proteins named here, by UniProt entry; tags and fusion partners are left off.
UniProt P43220, whole entry, looked up: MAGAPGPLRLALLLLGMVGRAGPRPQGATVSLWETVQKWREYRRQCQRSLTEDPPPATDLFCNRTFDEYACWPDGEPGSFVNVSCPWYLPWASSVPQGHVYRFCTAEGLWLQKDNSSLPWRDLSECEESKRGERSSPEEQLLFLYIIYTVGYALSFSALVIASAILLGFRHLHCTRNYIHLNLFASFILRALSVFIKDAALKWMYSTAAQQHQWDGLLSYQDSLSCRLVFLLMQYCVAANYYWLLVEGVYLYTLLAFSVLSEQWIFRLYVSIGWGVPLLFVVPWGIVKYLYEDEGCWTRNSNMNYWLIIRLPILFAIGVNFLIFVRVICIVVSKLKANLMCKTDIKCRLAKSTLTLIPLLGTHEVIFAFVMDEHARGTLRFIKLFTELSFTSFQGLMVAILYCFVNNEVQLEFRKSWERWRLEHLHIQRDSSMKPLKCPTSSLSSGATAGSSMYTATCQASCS

molecular target: Glucagon-like peptide 1 receptor (Homo sapiens) (UniProt P43220); test: qHTS of GLP-1 Receptor Agonists; conditions: HEK293 GLP-1R CRE-luciferase, luminescence, 4-6 h, cells express a hypersensitive GLP-1R form; at 45.6 µM (top of the series) unless noted; note: % of control where 0% means no effect
Text: The overall goal of this project was to develop a novel assay for discovering small molecule ligands for class B1 G protein-coupled receptors (GPCRs). Very few agonists (or inverse agonists) with generally weak activity for this entire group of physiologically important receptors are known to date. To establish proof-of-principle that this critical bottleneck can be overcome with a suitable screening approach, our studies focused on the class B1 receptor for glucagon-like peptide-1 (GLP-1R), a potential therapeutic target for diabetes and neurodegenerative disease.
The assay was developed in a "mix and measure" format using a cell-based functional readout. Toward this goal, stably transfected HEK293 cell clones were established that co-express (i) a cAMP-responsive luciferase reporter gene, and (ii) GLP-1Rs that upon ligand interaction either stimulate (agonists) or inhibit (inverse agonists) luciferase activity. In different cell lines to be used for screening, expressed GLP-1Rs are specifically optimized for high sensitivity detection of either weak agonists (hypersensitive receptor) or inverse agonists (constitutively active receptor mutant). In addition, control cell lines were developed that express either the cAMP-responsive reporter gene without recombinant GLP-1Rs (enabling initial exclusion of GLP-1R independent effects of candidate probes), or the reporter gene together with wild type GLP-1Rs (for confirmation of probe activity at this receptor), or the reporter gene in combination with the constitutively active orphan receptor GPR119 (enabling initial exclusion of GLP-1R independent inhibitory effects of candidate inverse agonists).
To that end, this assay was optimized for 1536-well format and screened against the MLSMR.
NIH Molecular Libraries Probe Production Network [MLPCN]
NIH Chemical Genomics Center [NCGC]
PI Name: Martin Beinborn, Tufts Medical Center
In a white solid 1536-well plate, 6 uL of cells are dispensed in DMEM without phenol red, 10% Nu serum, and 1% pen-strep medium. The plates are then incubated for 12 hours at 37 deg C at 5% CO2 before 23 nL of compounds are added. After a 4-6 hr incubation at37 deg C and 5% CO2, 3 uL of detection reagent are added and after a 12 min incubation at RT, a luminescent read is obtained on the ViewLux.

SMILES | activation
C[C@@H]1C=CCP(=O)(Oc2ccccc2)O1 (some centres not stated) | inactive: -2.71%
C[C@H]1OP(=O)(Oc2ccccc2)C[C@@H]2O[C@@H]21 (some centres not stated) | inactive: -1.43%
Cc1ccccc1CN(C)C(=O)COC(=O)C(O)(c1ccccc1)c1ccccc1 | inactive: -1.04%
CC(=O)Nc1ccc(Oc2c([N+](=O)[O-])cc([N+](=O)[O-])cc2[N+](=O)[O-])cc1 | inactive: -0.187%
CC(=O)Nc1ccc([As](=O)(O)O)c(O)c1 | inactive: -0.172%
CCOc1ccc(C2=NCC(CBr)S2)cc1 (configuration not stated) | inactive: -1.38%
O=P1(Nc2nc3ccc(Cl)cc3s2)COc2ccccc2O1 (configuration not stated) | inactive: 10.3%
CCc1cc(O)c([N+](=O)[O-])c(C)c1[N+](=O)[O-] | inactive: 0.127%
CC(C)(C)C(=O)NC(Sc1ccccc1)C(Cl)(Cl)Cl (configuration not stated) | inactive: 12.8%
CC(=O)NC(SC(=S)N(CC(C)C)CC(C)C)C(Cl)(Cl)Cl (configuration not stated) | inactive: -2.81%
Cc1ccc(OP(=O)(Nc2ccccn2)Oc2ccc(C)cc2)cc1 | inactive: 17.2%
COC(=O)c1cc2c(s1)N=C(c1ccccc1)N(C)P2(=O)N1CCOCC1 (configuration not stated) | inactive: -13.6%
CCC(=O)N1C2C3N(C(=O)CC)C1C1N(C(=O)CC)C(C(N1C(=O)CC)N3C(=O)CC)N2C(=O)CC | inactive: -11.4%
O=C(OC1CN2CCC1CC2)c1ccccc1 (configuration not stated) | inactive: 2.67% and inactive: -2.02%
CN(C)C(=O)Oc1noc2ccccc12 | inactive: 5.58%
O=c1c2cc([N+](=O)[O-])ccc2[nH]c2c([N+](=O)[O-])cc([N+](=O)[O-])cc12 | inactive: -3.6%
Cc1ccccc1OP(=O)(Nc1ccccn1)Oc1ccccc1C | inactive: 0.155%
CC(NC(=O)COC(=O)C(O)(c1ccccc1)c1ccccc1)c1ccccc1 (configuration not stated) | inactive: -0.25%
O=C(NC1CCS(=O)(=O)C1)NP(=S)(Oc1ccccc1)Oc1ccccc1 (configuration not stated) | inactive: 0.166%

SMILES | activation
CCNC(=S)/N=C(\N)N[N+](=O)[O-] | inactive: 0.0389%
Cc1ccc(NP(=O)(Oc2cccc(C)c2)Oc2cccc(C)c2)nc1 | inactive: 7.26%
c1ccc(-c2nn[nH]n2)c(-c2nn[nH]n2)c1 | inactive: -0.307%
O=P1(N(CCCl)CCCl)OCCC2CCCCN21 (configuration not stated) | inactive: -0.155%
NC(=O)Nc1ccc([As](=O)(O)O)cc1 | inactive: 1.97% and inactive: -2.04%
CN(C(=O)Cc1ccc(Cl)c(Cl)c1)[C@H]1CC[C@@]2(CCCO2)C[C@@H]1N1CCCC1 | inactive: 5.11%
CN(C)C(=O)c1cc([N+](=O)[O-])cc2c1-c1c(cc([N+](=O)[O-])cc1[N+](=O)[O-])C2=O | inactive: 8.11%
O=[N+]([O-])c1ccc2c(c1)nnn2O | inactive: 3.03%
CN(C(=O)Cc1ccccc1)[C@@H]1CC[C@]2(CCCO2)C[C@H]1N1CCCC1 | inactive: -4.38%
CCOP1(=S)c2c(C)nn(CCC#N)c2N=C(c2ccc(F)cc2)N1C (configuration not stated) | inactive: 5.48%
N#CCCN(C(=O)COC(=O)C(O)(c1ccccc1)c1ccccc1)c1ccc(F)cc1 | inactive: 2.12%
CS(=O)(=O)c1cc([N+](=O)[O-])c2no[n+]([O-])c2c1 | inactive: -0.481%
O=P(Nc1nccs1)(c1ccccc1)c1nc2ccccc2s1 (configuration not stated) | inactive: 10.5%
O=P(Nc1nccs1)(Oc1ccccc1)Oc1ccccc1 | inactive: 0.199%
CCOP1(=S)c2c(C)nn(CCC#N)c2N=C(c2ccccc2F)N1C (configuration not stated) | inactive: 2.43%
O=C(O)COc1ccc([As](=O)(O)O)cc1[N+](=O)[O-] | inactive: 4.34%
Nc1ccccc1[As](=O)(O)c1ccccc1 | inactive: 1.04%
CCCOP(=S)(Nc1nc(N)cc(=O)[nH]1)OCCC | inactive: 2.6%
Cc1ccc(NCCc2c([N+](=O)[O-])cc([N+](=O)[O-])cc2[N+](=O)[O-])cc1 | inactive: -31.6%

SMILES | activation
Nc1cccc2c([As](=O)(O)O)cccc12 | inactive: -0.282%
CCOP(=O)(Nc1cccc2ccccc12)OCC | inactive: 9.65%
COc1cc(C2NCCC3(OCCO3)C2(C)C)cc(OC)c1OC (configuration not stated) | inactive: -3.72%
CS(=O)(=O)c1ccc(Cl)c(NC(=O)COC(=O)C(O)(c2ccccc2)c2ccccc2)c1 | inactive: -2.14%
COc1cc(C(=O)NCC2(N3CCOCC3)CCCCC2)cc(Cl)c1OC(C)C | inactive: 16.7%
O=[As](O)(O)c1cccnc1 | inactive: -2.34%
CN(C(=O)Cc1ccc(Cl)c(Cl)c1)[C@@H]1CC[C@]2(CCCO2)C[C@H]1N1CCCC1 | inactive: -0.656%
O=C(OC1CN2CCC1CC2)c1ccc(Cl)cc1 (configuration not stated) | inactive: 2.48%
O=[As](O)(c1cccc(O)c1)c1cccc(O)c1 | inactive: -0.427%
Cc1cccc(OCC(=O)OC2CN3CCC2CC3)c1 (configuration not stated) | inactive: 0.286%
COc1ccccc1CNC(=O)COC(=O)C(O)(c1ccccc1)c1ccccc1 | inactive: 3.29%
CC1(CBr)Cn2c(nc3ccccc3c2=O)S1 (configuration not stated) | inactive: -5.5%
CN(C(=O)Cc1ccc(Cl)c(Cl)c1)[C@@H]1CCCC[C@H]1N1CCCC1 | inactive: 6.66%
CC(C)/C=N\N=C(\N)N[N+](=O)[O-] | inactive: -1.83%
CN(CCCl)Cc1cc(Cl)c(NC2=NCCN2)c(Cl)c1 | inactive: 9.13%
CCOP(=O)(Nc1ccc(C)cn1)OCC | inactive: -4.64%
CCOP(=O)(NC(=NC(C)c1ccccc1)NC(C)c1ccccc1)OCC (configuration not stated) | inactive: 2.86%
CCC1=CC2Cc3nc4ccc(Cl)cc4c(N)c3C(C1)C2 (configuration not stated) | inactive: -0.254%
O=P1(Nc2ccccn2)COc2ccccc2OC1 | inactive: -11%
